Antibody variant affinities, Ab-91 heavy chain, assay 2

The target is the same throughout: PDVDLGDISGINAS, from the HR2 region of SARS-CoV-2 spike.

Parent: Ab-91, a human scFv built as VL, a 15-residue (Gly4Ser)3 linker, VH. Only the CDRs of the heavy chain vary.
VL: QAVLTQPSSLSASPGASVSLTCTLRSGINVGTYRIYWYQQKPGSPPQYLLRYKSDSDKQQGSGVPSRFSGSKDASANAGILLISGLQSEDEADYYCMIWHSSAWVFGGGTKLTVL
VH: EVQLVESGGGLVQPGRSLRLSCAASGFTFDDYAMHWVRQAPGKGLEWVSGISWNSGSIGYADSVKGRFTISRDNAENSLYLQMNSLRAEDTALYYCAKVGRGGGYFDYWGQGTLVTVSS

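The starting antibody came from a phage panning campaign against this peptide. The library (AAYL51) carries one to three amino acid substitutions per variant, with no insertions or deletions. In AlphaSeq, yeast of one mating type display the scFv and yeast of the other type display the target. The frequency of each diploid, read from paired DNA barcodes, reflects how well the two displayed proteins bind. Each replicate has its own calibration line, from reference interactions of the BCL2 family. The assay was run in three technical replicates.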

Variants are written as CDR1, CDR2 and CDR3 of the heavy chain (limits as in the source). Parent: GFTFDDYAMH, GISWNSGSIGYADSVK, VGRGGGYFDY. The read-out is the apparent dissociation constant on a log10 scale (nM): the lower, the stronger. The mean shown is taken over the replicates in which the pair was detected. An entry "n.d." has no value in the source: the pair was not observed among the diploids in that replicate. This suggests poor binding but is not conclusive. Empty control strains, which show no peptide, gave a signal in 21% of pairings with library AAYL51; the median was 4.54 and 95% of these signals were weaker than 3.26. No background was subtracted. For each scFv, signals with the empty controls are counted beside the result, with their mean in brackets.

| # | CDR-H1 | CDR-H2 | CDR-H3 | log10 Kd (nM) by replicate | mean log10 Kd (nM) | control signals |
|---|---|---|---|---|---|---|
| 1 | GFTNDDYAMC | GISWNSGSIGYADSVK | VGRGGGAFDY | 4.17 n.d. 4.45 | 4.31 | 4 of 9 (4.96) |
| 2 | GFTFDQYAMF | GISWNSMSIGYADSVK | VGRGGGYFDY | n.d. n.d. n.d. | n.d. | 1 of 9 (4.00) |
| 3 | GFTFDDYAMH | GISWTSGSIGYADSVK | VGRGGGYETY | n.d. 4.35 n.d. | 4.35 | 2 of 9 (3.77) |
| 4 | GFTFDDFAMH | GISWNNQSIGYADSVK | VGRGGGYFDY | n.d. n.d. n.d. | n.d. | 3 of 9 (3.43) |
| 5 | GFTFDDYAGH | GISWNSGSIGYADSVK | VGRGGGYYDE | n.d. n.d. n.d. | n.d. | 2 of 9 (3.11) |
| 6 | GFTFDGPAMS | GISWNSGSIGYADSVK | VGRGGGYFDY | 4.30 6.26 4.60 | 5.05 | 6 of 9 (4.40) |
| 7 | GFTMDDYARH | GISWNSGSIGYSDSVK | VGRGGGYFDY | n.d. n.d. n.d. | n.d. | 0 of 9 |
| 8 | GFTFDDYAMH | GIAWNSGSIPYADSVK | VGRGGGYFDY | n.d. 4.72 n.d. | 4.72 | 3 of 9 (3.66) |
| 9 | GYTFDDYAMH | TWSWNSGSIGYADSVK | VGRGGGYFDY | n.d. n.d. n.d. | n.d. | 2 of 9 (3.62) |
| 10 | GFTFDDYAMS | GISWNSGSIGYADRVK | VGRGGGVFDY | n.d. n.d. n.d. | n.d. | 1 of 9 (4.72) |
| 11 | GFTFDDYAMH | GQSWNSPSIGYKDSVK | VGRGGGYFDY | n.d. 5.58 n.d. | 5.58 | 5 of 9 (4.77) |
| 12 | GFTFDDIAMH | GISWNSGSIAYADSVK | VGRGGPYFDY | 3.43 n.d. n.d. | 3.43 | 4 of 9 (4.15) |
| 13 | GFTFDFYATH | GISWNSGSIGYADSVK | VGRGGGYFRY | n.d. n.d. n.d. | n.d. | 0 of 9 |
| 14 | GFTFDDYMMH | GISWNSGSIGYADSVK | VGSGGGQFDY | 5.22 4.16 n.d. | 4.69 | 4 of 9 (5.16) |
| 15 | GFEFDDYAMH | GISWNSGSIYYADSVK | VGRGGGYFDY | n.d. n.d. n.d. | n.d. | 0 of 9 |
| 16 | GFTFDDYAMH | GISWNSGSIGYADSVK | DCRYGGYFDY | 4.24 n.d. 5.19 | 4.71 | 5 of 9 (4.41) |
| 17 | GFTFDPYAMH | RISWNSGSIGYADSVK | VGRGGGYFNY | 4.09 n.d. n.d. | 4.09 | 1 of 9 (4.34) |
| 18 | GFYFDDYAMH | GISWNSGSIDYADSVK | VGRGQGYFDY | n.d. n.d. n.d. | n.d. | 1 of 9 (3.83) |
| 19 | GFTFDKYAMH | GISWNSGSIGYHDSVK | VGEGGGYFDY | n.d. n.d. n.d. | n.d. | 0 of 9 |
| 20 | GFTFDDYADH | GISWNSGSIGYAGSVK | VGRGGPYFDY | n.d. n.d. n.d. | n.d. | 1 of 9 (2.92) |
| 21 | GFTFDDVAMM | GISWNSGSIGYADSVK | VGRGGGFFDY | n.d. n.d. n.d. | n.d. | 2 of 9 (3.46) |
| 22 | GFTFNDYAMH | GFPWNSGSIGYADSVK | VGRGGGYFDY | 4.48 n.d. n.d. | 4.48 | 0 of 9 |
| 23 | GFTFDDYAMH | MISWNVGSIGYADRVK | VGRGGGYFDY | 5.31 n.d. n.d. | 5.31 | 2 of 9 (4.13) |
| 24 | GFWVDDYAMH | GISWNSGSIGYADSVK | VGRGGRYFDY | n.d. n.d. n.d. | n.d. | 0 of 9 |
| 25 | GFTFDDYAMH | GISWNACSIGYADSVK | VSRGGGYFDY | 2.21 2.35 1.83 | 2.13 | 7 of 9 (4.35) |
| 26 | GFTFDDYAMH | GISWNSGSIGYADSVQ | VGRGGGYFDY | n.d. n.d. n.d. | n.d. | 1 of 9 (2.66) |
| 27 | IFTFDDYAMH | GISWNSGSIGYADSVK | SGRGGGAFDY | n.d. n.d. n.d. | n.d. | 1 of 9 (3.36) |
| 28 | GFTFDDYAMH | GISWNSGSINYADSVK | VGRGGGYLDE | n.d. n.d. 3.51 | 3.51 | 1 of 9 (3.12) |
| 29 | GFTDDDYAQH | GISWNSGSIGYADKVK | VGRGGGYFDY | n.d. 4.79 n.d. | 4.79 | 1 of 9 (5.80) |
| 30 | GFTFDDYAMH | LISWNSGSIGYADSVK | VGRGGGYFDY | n.d. n.d. n.d. | n.d. | 0 of 9 |
| 31 | GFTFDDYAMH | GISWNSGSIGYHDSVP | VGRGGGSFDY | n.d. 4.86 n.d. | 4.86 | 1 of 9 (4.26) |
| 32 | GFTFDDTAMH | GISWNSGSIGYADSVK | VGYGGGYFDY | 5.42 5.57 3.44 | 4.81 | 2 of 9 (4.42) |
| 33 | GSTFHDYAMH | GISWNSLSIGYADSVK | VGRGGGYFDY | 3.78 3.76 3.86 | 3.80 | 0 of 9 |
| 34 | GKTFDDYAMH | GISWNSGSIGYADIPK | VGRGGGYFDY | 4.75 6.51 n.d. | 5.63 | 2 of 9 (5.17) |
| 35 | GFTFDDYAMH | GISWNSGSIGYADSVP | VDRGGGYFDY | 4.94 3.82 n.d. | 4.38 | 3 of 9 (4.16) |
| 36 | GFTFDDEAMH | GISWNSGSIGMADFVK | VGRGGGYFDY | n.d. 3.85 n.d. | 3.85 | 2 of 9 (4.02) |
| 37 | GFTFDDYNMH | GISDNSGSIGYADSVK | VKRGGGYFDY | 3.26 2.96 3.72 | 3.32 | 5 of 9 (4.72) |
| 38 | GFTFCDYAMH | GISWNSGSIGYADSVK | VGRGGGYFDY | 4.59 6.84 n.d. | 5.71 | 3 of 9 (4.47) |
| 39 | GFGFDDYAMH | GISWNSGSIGYADSVK | VGPGCGYFDY | n.d. 6.11 n.d. | 6.11 | 1 of 9 (3.47) |
| 40 | GFTFDDYAMH | CISWNSCSIGYADSVK | VGRGWGYFDY | n.d. 4.13 4.98 | 4.55 | 7 of 9 (5.18) |

The 5 strongest on average among those seen in every replicate, once more:

CDR-H1	CDR-H2	CDR-H3	log10 Kd (nM) by replicate	mean log10 Kd (nM)	control signals
GFTFDDYAMH	GISWNACSIGYADSVK	VSRGGGYFDY	2.21 2.35 1.83	2.13	7 of 9 (4.35)
GFTFDDYNMH	GISDNSGSIGYADSVK	VKRGGGYFDY	3.26 2.96 3.72	3.32	5 of 9 (4.72)
GSTFHDYAMH	GISWNSLSIGYADSVK	VGRGGGYFDY	3.78 3.76 3.86	3.80	0 of 9
GFTFDDTAMH	GISWNSGSIGYADSVK	VGYGGGYFDY	5.42 5.57 3.44	4.81	2 of 9 (4.42)
GFTFDGPAMS	GISWNSGSIGYADSVK	VGRGGGYFDY	4.30 6.26 4.60	5.05	6 of 9 (4.40)

Reference: Engelhart et al. 2022, doi:10.1038/s41597-022-01779-4. File: FLAb, binding data.